Binding of CDR-mutated scFvs to a peptide of the spike HR2 region

Reference: Engelhart et al. 2022, doi:10.1038/s41597-022-01779-4. File: FLAb, binding data.

All variants were tested on one target, the spike HR2 peptide PDVDLGDISGINAS (SARS-CoV-2).

The variants keep the heavy chain, the linker and the frameworks of Ab-14 (scFv order VH, a 15-residue (Gly4Ser)3 linker, VL).
VH: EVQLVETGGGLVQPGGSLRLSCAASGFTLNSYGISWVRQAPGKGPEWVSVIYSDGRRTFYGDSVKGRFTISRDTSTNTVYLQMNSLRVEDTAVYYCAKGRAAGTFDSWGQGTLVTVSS
VL: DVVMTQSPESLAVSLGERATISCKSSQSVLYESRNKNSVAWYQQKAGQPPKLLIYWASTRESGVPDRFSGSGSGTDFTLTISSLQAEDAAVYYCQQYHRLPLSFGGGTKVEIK

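Phage display of a naive human antibody library on the peptide gave the parent. The library (AAYL50) carries one to three amino acid substitutions per variant, with no insertions or deletions. AlphaSeq pools MATa yeast showing the antibodies with MATalpha yeast showing the peptide. The frequency of each diploid, read from paired DNA barcodes, reflects how well the two displayed proteins bind. Scores were corrected for input abundance and mapped to Kd with protein pairs of known affinity run in the same pool. The assay was run in three technical replicates.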

Each variant is given by its three light chain CDRs, as the data file delimits them; those of the parent are KSSQSVLYESRNKNSVA, WASTRES, QQYHRLPLS. Scale: log10 of Kd in nM, estimated from mating counts; low values are strong binders. "n.d." marks a missing value. The strain was present, yet no cells mated with the target were sequenced in that replicate, which points to weak or no binding.

CDR-L1 | CDR-L2 | CDR-L3 | replicates, log10 nM | control signals
KSSQSVLKESRNKNSYA | WASTRES | QQYHRVPLS | n.d. n.d. n.d. | 1/9 (3.05)
KSSQSVLYESRNKNRVA | WASTSEA | QQYHRLPLS | 5.13 4.43 n.d. | 5/9 (4.99)
KSSQSVCYESRNKNVVA | WASTRES | QQYHRLPLS | n.d. n.d. 3.88 | 4/9 (4.31)
KSSKWVLYESRNKNSVA | WASTRES | QQFHRLPLS | 2.68 2.54 3.11 | 5/9 (4.92)
KSSQSVLYPSRNKNSVA | WASTRES | FQYHRLPLN | n.d. n.d. n.d. | 0/9
KSSQSVLYESRNKNSVV | WASTRES | AQYHRLPLS | n.d. n.d. n.d. | 2/9 (4.94)
GSSQSVLYESNNKNSVA | WASTLES | QQYHRLPLS | 1.34 2.03 1.38 | 1/9 (3.07)
KISQAVLYESRNKNSVA | WASTRES | QQYKRLPLS | 0.05 0.40 0.12 | 3/9 (4.83)
KSSQSVLQESRNKNSVA | WAWTRES | QQYHRLPLI | 4.67 2.55 n.d. | 1/9 (2.89)
NSSQSVLYECRNKNSVA | WASTRES | QQYHRLPLS | n.d. n.d. n.d. | 1/9 (3.17)
KSSASVLDESVNKNSVA | WASTRES | QQYHRLPLS | 2.01 2.22 2.26 | 1/9 (3.16)
KSSQSVDYESRNKNSVA | WASTRRS | QYYHRLPLS | 1.92 1.98 2.10 | 9/9 (4.86)
KSSQSVLYESRNKNSVE | WHSTRES | QQYHMLPLS | n.d. n.d. 2.81 | 0/9
KSSQYVLYESRNKTSVA | WASTRES | QQYHRLPLS | 2.32 3.47 n.d. | 1/9 (3.32)
KSSQGVLYESRNKNSVA | WSSTREE | QQYHRLPLS | 0.97 1.16 0.86 | 0/9
KSSQSVLYESRNKNSQA | WASTRES | KQEHRLPLS | n.d. 2.81 n.d. | 0/9
KSSQSVLYESRNKNSVA | EKFTRES | QQYHRLPLS | -0.20 0.18 -0.05 | 3/9 (4.17)
KSSQSVLYERRNKNSVA | WISTRES | QQHHRLPLS | n.d. n.d. 6.11 | 3/9 (3.95)
KSSQSVLYESRNKNSVA | WKSTKES | QQYHRLPCS | n.d. n.d. n.d. | 0/9
KSSQSVQYESRNKNSVA | WACTRES | QQYHRLFLS | n.d. 3.40 n.d. | 1/9 (4.45)
KSSQSHLYESMNKNSVA | WASTRES | QQYHRLPDS | 2.28 n.d. n.d. | 0/9
KSSQSVLYESRNKNSVA | WASTREG | HQYHRLPYS | n.d. n.d. n.d. | 0/9
KSSQSVLYESRNKSSIA | WASTRES | QQYHRLPLV | 1.19 1.51 1.47 | 3/9 (4.52)
KSSQYVLYESRNKQSVA | WASKRES | QQYHRLPLS | 2.73 2.34 2.51 | 1/9 (2.99)
KSSQKVLYESRNKNSVA | WASTREP | QQYHRLPLS | 0.93 1.15 1.20 | 2/9 (3.69)
KSSQSVNYSSRNKNSVA | WASTRES | QQDHRLPLS | 3.33 2.72 n.d. | 2/9 (4.92)
KSSQSVQYESRNKNSVR | WASRRES | QQYHRLPLS | n.d. n.d. n.d. | 1/9 (3.21)
KSSQSVLYESRNKNSVA | WASTRES | QQSHRKKLS | n.d. n.d. n.d. | 2/9 (4.03)
KSSQSVLYESRNKSSVA | WASTLES | QQYHRLPSS | 1.17 1.56 1.17 | 0/9
KSSQSVCYESRNKNSVA | WWSTRES | QQYHRLPLR | n.d. n.d. n.d. | 2/9 (4.66)
KQSQSVLYNSGNKNSVA | WASTRES | QQYHRLPLS | 0.78 0.65 0.57 | 0/9
KSMQSVLKESINKNSVA | WASTRES | QQYHRLPLS | 1.67 1.52 1.32 | 0/9
KSSQSVLYRSRNKNKVA | WASTRES | QSYHRLPLS | n.d. n.d. n.d. | 0/9
KSSQSVLYESRNFNSVA | WASTRES | WQYLRLPLS | 1.41 1.59 1.46 | 3/9 (5.04)
MSSQSVLYESRNKNSWA | WASTREF | QQYHRLPLS | n.d. n.d. n.d. | 0/9
KSSQSVLYESRNKNSVA | WACTRES | QQYFRLTLS | n.d. n.d. n.d. | 1/9 (3.46)
KYSQSVLYESRNKNSVA | WASTRES | QKYHRLPDS | n.d. n.d. n.d. | 2/9 (4.48)
KSSQSVLYESRNKNCVA | YASLRES | QQYHRLPLS | 2.15 2.35 3.63 | 0/9
KSSQSVKYESRNKNSVA | WASTRES | QQKQRLPLS | n.d. n.d. n.d. | 0/9
KSSKSVLYEIRNKLSVA | WASTRES | QQYHRLPLS | 2.43 2.22 2.37 | 2/9 (4.69)
KSSQTVLYESRNKVSVA | WASTQES | QQYHRLPLS | n.d. n.d. n.d. | 0/9
KSSQSVLYESRNKNSVA | WASVRES | QIYHRCPLS | 0.55 0.86 0.66 | 2/9 (4.36)
KSSQPVLYESRNKNSVA | WTSTRES | QQYHRLQLS | 1.35 1.44 1.31 | 1/9 (3.91)
KASQSVLYESRNKNSVA | WASTRES | QCYARLPLS | n.d. 4.94 n.d. | 3/9 (3.47)

The last 5 entries again:

{"CDR-L1": "KSSKSVLYEIRNKLSVA", "CDR-L2": "WASTRES", "CDR-L3": "QQYHRLPLS", "replicates, log10 nM": "2.43 2.22 2.37", "control signals": "2/9 (4.69)"}
{"CDR-L1": "KSSQTVLYESRNKVSVA", "CDR-L2": "WASTQES", "CDR-L3": "QQYHRLPLS", "replicates, log10 nM": "n.d. n.d. n.d.", "control signals": "0/9"}
{"CDR-L1": "KSSQSVLYESRNKNSVA", "CDR-L2": "WASVRES", "CDR-L3": "QIYHRCPLS", "replicates, log10 nM": "0.55 0.86 0.66", "control signals": "2/9 (4.36)"}
{"CDR-L1": "KSSQPVLYESRNKNSVA", "CDR-L2": "WTSTRES", "CDR-L3": "QQYHRLQLS", "replicates, log10 nM": "1.35 1.44 1.31", "control signals": "1/9 (3.91)"}
{"CDR-L1": "KASQSVLYESRNKNSVA", "CDR-L2": "WASTRES", "CDR-L3": "QCYARLPLS", "replicates, log10 nM": "n.d. 4.94 n.d.", "control signals": "3/9 (3.47)"}

As a blank, each scFv also met three strains without target: over library AAYL50, 18% of these pairings were detected, typically at 4.19 and seldom below 2.99. For each scFv, signals with the empty controls are counted beside the result, with their mean in brackets.